The values below come from article PMC11052071, “Novel JAK Inhibitors to Reduce Graft-Versus-Host Disease after Allogeneic Hematopoietic Cell Transplantation in a Preclinical Mouse Model” (Molecules, 2024).

The chains behind the UniProt entries cited, without tags or fusion partners. Where a name states a change or a piece, a line headed by the entry shows the natural chain unless it says otherwise.
UniProt O60674: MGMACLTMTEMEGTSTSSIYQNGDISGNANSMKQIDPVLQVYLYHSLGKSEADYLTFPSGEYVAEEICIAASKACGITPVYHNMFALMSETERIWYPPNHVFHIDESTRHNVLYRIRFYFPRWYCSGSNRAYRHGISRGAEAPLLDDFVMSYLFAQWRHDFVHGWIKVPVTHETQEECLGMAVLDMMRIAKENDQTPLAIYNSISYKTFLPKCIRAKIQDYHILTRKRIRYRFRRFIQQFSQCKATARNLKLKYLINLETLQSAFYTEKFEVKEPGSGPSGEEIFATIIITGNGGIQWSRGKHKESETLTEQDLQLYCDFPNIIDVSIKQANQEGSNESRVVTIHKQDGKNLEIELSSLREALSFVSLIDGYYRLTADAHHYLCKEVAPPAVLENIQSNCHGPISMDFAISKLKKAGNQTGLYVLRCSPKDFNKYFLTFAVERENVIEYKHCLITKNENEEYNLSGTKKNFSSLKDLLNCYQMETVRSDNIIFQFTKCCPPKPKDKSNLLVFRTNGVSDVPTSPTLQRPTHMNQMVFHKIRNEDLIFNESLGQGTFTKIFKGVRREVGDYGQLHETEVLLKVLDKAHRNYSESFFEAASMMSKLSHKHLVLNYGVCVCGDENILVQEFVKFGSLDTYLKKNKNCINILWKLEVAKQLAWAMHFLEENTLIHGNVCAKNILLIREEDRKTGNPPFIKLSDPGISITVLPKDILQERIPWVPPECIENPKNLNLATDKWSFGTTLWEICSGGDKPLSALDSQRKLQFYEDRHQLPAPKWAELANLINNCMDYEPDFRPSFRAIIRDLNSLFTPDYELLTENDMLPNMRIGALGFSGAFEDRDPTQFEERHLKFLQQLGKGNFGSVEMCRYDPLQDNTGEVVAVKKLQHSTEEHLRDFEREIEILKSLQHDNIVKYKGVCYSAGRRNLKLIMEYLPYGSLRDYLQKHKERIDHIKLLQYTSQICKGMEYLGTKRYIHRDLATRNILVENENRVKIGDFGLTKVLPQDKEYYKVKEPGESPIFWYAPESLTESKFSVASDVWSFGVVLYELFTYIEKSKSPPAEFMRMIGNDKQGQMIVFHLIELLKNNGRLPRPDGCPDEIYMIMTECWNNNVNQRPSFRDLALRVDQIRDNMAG

In one data set the target is JAK2 (Homo sapiens, UniProt O60674). The experiment in a line: Z'-LYTE enzyme activity assay (SelectScreen Kinase Profiling), JAK2.
Data set [1] can be described thus: Mouse PK after subcutaneous injection. It counts as in vivo. Conditions: 2 mg/kg s.c., CD-1 mice, time points up to 6 h; WU derivatives compared to BARI. The protocol: Subsequently, we assessed the in vitro metabolic stability and clearance values of WU derivatives in an HLM assay.
(A,B) Mouse PK following subcutaneous administration of WU derivatives (2 mg/kg) to CD-1 mice. […] All error bars are represented as mean ± standard deviation.
Mouse PK and in vitro human liver microsome (HLM) assay studies were conducted by Charles River Laboratories, Inc. (Wilmington, MA, USA). Briefly, male CD-1 mice were used in mouse PK studies. […] At 24 h, no drug levels were detected in plasma for any of the compounds tested. In addition, WU derivatives were evaluated in an in vitro HLM assay to determine the intrinsic human liver microsomal clearance values of compounds in incubations with human liver microsomes.

As to `CCS(=O)(=O)N1CC(CC#N)(n2cc(-c3ncnc4[nH]ccc34)cn2)C1` [BARI, baricitinib, reference compound], the IC50 came out at 12.1 nM against JAK2 (IC50 JAK2, ATP at 1 mM) and 0.22 nM on JAK2 (IC50 JAK2, ATP at app. Km). In addition, in data set [1], the “plasma drug concentration (mouse PK)” value was “superior PK compared to RUX”.

By IC50 is commonly meant the concentration that inhibits the measured activity by half. Lower therefore signals greater potency.
